From patent US11905539B2, “Isopropylmalate synthase variant and a method of producing L-leucine using the same” (dated 2024) come the findings set out here.

The test has as its system Corynebacterium glutamicum ATCC14067. The test is described as follows: Mortality rate of strains treated with NTG, smeared on minimal medium. Conditions: NTG 400 μg/mL final concentration, 30 minutes.

As to `CN(N=O)C(=N)N[N+](=O)[O-]`, the mortality rate was 99.6%.
